The chains behind the UniProt entries cited, without tags or fusion partners.
UniProt Q92905, whole entry, looked up: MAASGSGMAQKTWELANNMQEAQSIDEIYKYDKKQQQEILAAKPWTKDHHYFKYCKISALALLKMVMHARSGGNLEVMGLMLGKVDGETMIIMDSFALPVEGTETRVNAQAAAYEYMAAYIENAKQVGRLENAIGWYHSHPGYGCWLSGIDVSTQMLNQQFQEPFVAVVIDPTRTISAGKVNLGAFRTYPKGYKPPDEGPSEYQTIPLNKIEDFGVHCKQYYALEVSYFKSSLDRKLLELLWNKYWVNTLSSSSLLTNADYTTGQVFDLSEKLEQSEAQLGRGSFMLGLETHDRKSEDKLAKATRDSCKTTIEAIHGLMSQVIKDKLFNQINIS

This is a selection; strong and weak results do not stand in their true shares. Active and inactive are the calls of the source.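 Rule for the calls: active = pattern-corrected inhibition above about 35%, with an unprinted fluorescence ratio check between 0.5 and 1.5 (limit read from the data, passing the limit was not always enough); inactive = the rest.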
These molecules were tested against COP9 signalosome complex subunit 5 (Homo sapiens) (UniProt Q92905) (assay: inhibitors of CSN-mediated cullin deneddylation, primary screen, biochemical, fluorescence polarization, uHTS (AID 651999;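 note: 0% = enzyme with substrate and 100% = substrate without enzyme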)). Settings: Purified CSN, SCF-Nedd8-OG deneddylation, at 12.5 µM, stronger effect = higher value.
Procedure, shortened: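 Material: purified human Csn5 enzyme expressed in HEK293T cells / Medium: Tris buffer pH 7.5, NaCl, DTT, Tween-20, trehalose, ovalbumin / Compound dosing: 12.5 µM single point / Schedule: 90 min incubation of compound, enzyme and substrate at room temperature / Signal: fluorescence polarization of the substrate / Control set: no-enzyme wells high, enzyme-with-substrate wells low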
`Nc1cccc2ccc([As](=O)(O)O)cc12` was tested, and the inhibition was inactive: -32%. In the case of `CCN(N=Nc1nonc1N)c1nonc1N`, the inhibition is reported as inactive: 1.46%. In the case of `O=P(Nc1nc2ccc(Cl)cc2s1)(c1ccccc1)c1ccccc1`, the inhibition is reported as inactive: 0.13%. In the case of `CN(C)P(=O)(N(C)C)n1c(Nc2ccccc2)nnc1-c1ccccc1`, the inhibition is reported as inactive: 1.69%. `CC(=O)Nc1ccc([As](=O)(O)O)cc1` was tested, and the inhibition was inactive: -0.02%. In the case of `O=C(O)c1ccccc1[As](=O)(O)O`, the inhibition is reported as inactive: -2.44%. For `CCCC1OP(N)(=O)OCC1CC` (stereo not given), the inhibition was inactive: -5.31%. For `Cc1cc(SC(NC(=O)c2ccc(F)cc2)C(Cl)(Cl)Cl)ncn1` (stereo not given), the inhibition was inactive: 2.17%. In the case of `CCOP(=O)(Nc1ccccc1)OCC`, the inhibition is reported as inactive: 0.5%. `Cc1ccc(NP(=O)(Oc2ccccc2F)Oc2ccccc2F)nc1` was tested, and the inhibition was inactive: -3.55%. In the case of `CN(C(=O)Cc1ccc(Cl)c(Cl)c1)[C@H]1CCCC[C@@H]1N1CCCC1`, the inhibition is reported as inactive: -6.42%. With `Oc1ccccc1CNc1ccccn1` the inhibition was inactive: 1.86%. With `O=C(NC(Sc1ccncn1)C(Cl)(Cl)Cl)c1ccccc1` (stereo not given) the inhibition was inactive: 4.55%. In the case of `Nc1cc(N)c2nonc2c1[N+](=O)[O-]`, the inhibition is reported as inactive: 4.81%. With `CC(C)CC(=O)NC(Sc1ccc(Cl)cc1)C(Cl)(Cl)Cl` (stereo not given) the inhibition was inactive: 3.57%. In the case of `O=[N+]([O-])C1C(O)C(O)C([N+](=O)[O-])C(O)C1O` (stereo not given), the inhibition is reported as inactive: -2.79%. For `CN(C(=O)Cc1ccc(Cl)c(Cl)c1)[C@H]1CCCC[C@H]1N1CCCC1`, the inhibition was inactive: -1.53%. With `Cc1ccc(N/C(=N/P(=O)(N2CCOCC2)N2CCOCC2)N2CCOCC2)cc1` the inhibition was inactive: -5.47%. For `NC(=O)c1cc([N+](=O)[O-])cc([N+](=O)[O-])c1N`, the inhibition was inactive: -1.98%. `CN1CCCC(OC(=O)C(c2ccccc2)c2ccccc2)C1` (stereo not given) was tested, and the inhibition was inactive: -3.81%. For `Clc1ccc(Cl)c(NC2=NCC(CBr)S2)c1` (stereo not given), the inhibition was inactive: -24.6%. `COc1ccccc1OP(=O)(Nc1ccc(C)cn1)Oc1ccccc1OC` was tested, and the inhibition was inactive: 3.47%. For `Cc1ccc(OP(=O)(Nc2nccs2)Oc2ccc(C)cc2)cc1`, the inhibition was inactive: -6.31%. In the case of `CCN(/C(=N/P(=O)(N1CCOCC1)N1CCOCC1)N1CCOCC1)c1ccc(OC)cc1`, the inhibition is reported as inactive: 3.42%. For `Nc1ccc([As](=O)(O)c2ccc(N)cc2)cc1`, the inhibition was inactive: -4.19%. For `C[N+]1=C2C=CC=CC=C2SC12C([N+](=O)[O-])=CC([N+](=O)[O-])=C[C-]2[N+](=O)[O-]` (stereo not given), the inhibition was inactive: 48.6%. With `CC1CCN(C(=O)Oc2c(Cl)cc(Cl)c3cccnc23)CC1` the inhibition was inactive: -3.9%. With `c1cc(-c2nn[nH]n2)ccc1-c1nn[nH]n1` the inhibition was inactive: -6.42%. `CC(C)c1nc(Nc2ccccc2)n(P(=O)(N(C)C)N(C)C)n1` was tested, and the inhibition was inactive: 3.17%. `CC(C)=N/N=C(\N)N[N+](=O)[O-]` was tested, and the inhibition was inactive: 4.86%. With `CN(C)C(=O)OCCc1n(C)cc[n+]1C` the inhibition was inactive: 2.74%. In the case of `COc1ccc(C2=NCC(CBr)S2)cc1` (stereo not given), the inhibition is reported as inactive: -1.65%. In the case of `Cc1ccc(NP(=O)(Oc2ccccc2)Oc2ccccc2)nc1`, the inhibition is reported as inactive: 8.21%. With `CCc1nc2c(n1)c1c(non1O)c1c2no[n+]1[O-]` the inhibition was inactive: 3.42%. With `O=[N+]([O-])c1cc([N+](=O)[O-])c(CCNc2ccccc2)c([N+](=O)[O-])c1` the inhibition was inactive: -2.64%. `O=[N+]([O-])c1cccc2n[nH]nc12` was tested, and the inhibition was inactive: -0.42%. `CC(=O)N1C2C3N(C(C)=O)C1C1N(C(C)=O)C(C(N1C(C)=O)N3C(C)=O)N2C(C)=O` was tested, and the inhibition was inactive: -5.55%. `O=[N+]([O-])c1ncn(CCn2ncnc2[N+](=O)[O-])n1` was tested, and the inhibition was inactive: 5%. In the case of `CC(C)(C)C(=O)NC(Sc1ccncn1)C(Cl)(Cl)Cl` (stereo not given), the inhibition is reported as inactive: 2%. In the case of `O=C(O)CNc1ccc([As](=O)(O)O)cc1`, the inhibition is reported as inactive: 2.41%. With `COC(=O)C1(C)COP(=O)(Nc2ccccc2)OC1` (stereo not given) the inhibition was inactive: 6.55%. For `O=[N+]([O-])c1cccc(NC2=NCC(CBr)S2)c1` (stereo not given), the inhibition was inactive: -1.52%. For `O=P1(N(CCCl)CCCl)OCCCS1` (stereo not given), the inhibition was inactive: 0.71%. With `O=C(Nc1cc([As](=O)(O)O)ccc1O)c1ccccc1` the inhibition was inactive: 0.67%. `O=[As](O)(c1ccccc1)c1ccc(O)cc1` was tested, and the inhibition was inactive: 4.31%. `O=[N+]([O-])c1ccc(O)c(/C=N/Nc2ccc([N+](=O)[O-])cc2[N+](=O)[O-])c1` was tested, and the inhibition was inactive: 0.07%. `O=[N+]([O-])c1ncn(CCn2cnc([N+](=O)[O-])n2)n1` was tested, and the inhibition was inactive: 1.4%. `CC(=O)NC(SC(=S)N(C)C)C(Cl)(Cl)Cl` (stereo not given) was tested, and the inhibition was inactive: -14.2%. For `O=C(OC1CN2CCC1CC2)c1cccc(Cl)c1` (stereo not given), the inhibition was inactive: 4.13%. For `C(Cc1nn[nH]n1)Cc1nn[nH]n1`, the inhibition was inactive: -8.59%. In the case of `Nc1ccc([As](=O)(O)c2ccc([N+](=O)[O-])cc2)cc1`, the inhibition is reported as inactive: -3.07%. In the case of `O=P(Nc1ccccn1)(c1ccc(Br)cc1)c1ccc(Br)cc1`, the inhibition is reported as inactive: 2.93%. `CN(C)C1(CNC(=O)c2ccc(Cl)c(S(N)(=O)=O)c2)CCCCC1` was tested, and the inhibition was inactive: -2.3%. For `COc1ccc(N)c([N+](=O)[O-])c1[N+](=O)[O-]`, the inhibition was inactive: 8.26%. `Nc1ccc(CCCCOc2ccccc2)cc1` was tested, and the inhibition was inactive: 3.63%. For `O=P(Nc1nc2ccccc2s1)(c1ccccc1)c1ccccc1`, the inhibition was inactive: 2.49%. `C[C@H]1OP(=O)(Oc2ccccc2)[C@H](O)[C@H](O)[C@H]1N=[N+]=[N-]` (stereo not given in full) was tested, and the inhibition was inactive: 0.12%. With `CC(C)C(=O)NC(Sc1ccccc1)C(Cl)(Cl)Cl` (stereo not given) the inhibition was inactive: 2.04%. With `O=P(Nc1nccs1)(c1ccccc1)c1ccccc1` the inhibition was inactive: -0.27%. In the case of `c1nnnn1CCn1cnnn1`, the inhibition is reported as inactive: -3.15%. In the case of `Cc1ccccc1CN(C)C(=O)COC(=O)C(O)(c1ccccc1)c1ccccc1`, the inhibition is reported as inactive: 2.61%. With `C[C@H]1OP(=O)(Oc2ccccc2)C[C@@H]2O[C@@H]21` (stereo not given in full) the inhibition was inactive: 0.07%. `C[C@@H]1C=CCP(=O)(Oc2ccccc2)O1` (stereo not given in full) was tested, and the inhibition was inactive: -0.15%. With `CC(=O)c1ccc(N2CC2c2ccncc2)cc1` (stereo not given) the inhibition was inactive: 0.28%. `N#C/C(=C\c1ccc(N(CCBr)CCBr)cc1)C(N)=O` was tested, and the inhibition was inactive: -1.78%. In the case of `COC(=O)C1(C)COP(=O)(NCc2ccccc2)OC1` (stereo not given), the inhibition is reported as inactive: 0.9%. In the case of `CC(=O)Nc1ccc([As](=O)(O)O)c(O)c1`, the inhibition is reported as inactive: 0.96%. In the case of `CC(=O)Nc1ccc(Oc2c([N+](=O)[O-])cc([N+](=O)[O-])cc2[N+](=O)[O-])cc1`, the inhibition is reported as inactive: 3.59%. With `O=P1(Nc2nc3ccc(Cl)cc3s2)COc2ccccc2O1` (stereo not given) the inhibition was inactive: -0.5%. `CCOc1ccc(C2=NCC(CBr)S2)cc1` (stereo not given) was tested, and the inhibition was inactive: 5.12%. For `CC(C)(C)C(=O)NC(Sc1ccccc1)C(Cl)(Cl)Cl` (stereo not given), the inhibition was inactive: -1.49%. For `CCc1cc(O)c([N+](=O)[O-])c(C)c1[N+](=O)[O-]`, the inhibition was inactive: -2.62%. In the case of `O=C(OC1CN2CCC1CC2)c1ccccc1` (stereo not given), the inhibition is reported as inactive: 1.04%. For `CCC(=O)N1C2C3N(C(=O)CC)C1C1N(C(=O)CC)C(C(N1C(=O)CC)N3C(=O)CC)N2C(=O)CC`, the inhibition was inactive: -0.35%. In the case of `COC(=O)c1cc2c(s1)N=C(c1ccccc1)N(C)P2(=O)N1CCOCC1` (stereo not given), the inhibition is reported as inactive: -0.88%. With `Cc1ccc(OP(=O)(Nc2ccccn2)Oc2ccc(C)cc2)cc1` the inhibition was inactive: -5.26%. In the case of `CC(=O)NC(SC(=S)N(CC(C)C)CC(C)C)C(Cl)(Cl)Cl` (stereo not given), the inhibition is reported as inactive: -0.58%. In the case of `CC(NC(=O)COC(=O)C(O)(c1ccccc1)c1ccccc1)c1ccccc1` (stereo not given), the inhibition is reported as inactive: -2.75%. For `Cc1ccccc1OP(=O)(Nc1ccccn1)Oc1ccccc1C`, the inhibition was inactive: 0.21%. For `O=c1c2cc([N+](=O)[O-])ccc2[nH]c2c([N+](=O)[O-])cc([N+](=O)[O-])cc12`, the inhibition was inactive: 8.92%. `CN(C)C(=O)Oc1noc2ccccc12` was tested, and the inhibition was inactive: 2.02%. In the case of `c1ccc(-c2nn[nH]n2)c(-c2nn[nH]n2)c1`, the inhibition is reported as inactive: -12.8%. For `Cc1ccc(NP(=O)(Oc2cccc(C)c2)Oc2cccc(C)c2)nc1`, the inhibition was inactive: -2.08%. In the case of `CCNC(=S)/N=C(\N)N[N+](=O)[O-]`, the inhibition is reported as inactive: 2.63%. For `O=C(NC1CCS(=O)(=O)C1)NP(=S)(Oc1ccccc1)Oc1ccccc1` (stereo not given), the inhibition was inactive: -15.2%. With `O=P1(N(CCCl)CCCl)OCCC2CCCCN21` (stereo not given) the inhibition was inactive: -1.18%. For `NC(=O)Nc1ccc([As](=O)(O)O)cc1`, the inhibition was inactive: 0.87%. With `N#CCCN(C(=O)COC(=O)C(O)(c1ccccc1)c1ccccc1)c1ccc(F)cc1` the inhibition was inactive: 1.82%. `CN(C(=O)Cc1ccccc1)[C@@H]1CC[C@]2(CCCO2)C[C@H]1N1CCCC1` was tested, and the inhibition was inactive: 0.88%. `CCOP1(=S)c2c(C)nn(CCC#N)c2N=C(c2ccc(F)cc2)N1C` (stereo not given) was tested, and the inhibition was inactive: 4.36%. In the case of `O=[N+]([O-])c1ccc2c(c1)nnn2O`, the inhibition is reported as inactive: -6.46%. In the case of `CN(C)C(=O)c1cc([N+](=O)[O-])cc2c1-c1c(cc([N+](=O)[O-])cc1[N+](=O)[O-])C2=O`, the inhibition is reported as inactive: -1.18%. In the case of `CN(C(=O)Cc1ccc(Cl)c(Cl)c1)[C@H]1CC[C@@]2(CCCO2)C[C@@H]1N1CCCC1`, the inhibition is reported as inactive: 0.05%. `CCOP1(=S)c2c(C)nn(CCC#N)c2N=C(c2ccccc2F)N1C` (stereo not given) was tested, and the inhibition was inactive: 0.77%. In the case of `O=P(Nc1nccs1)(Oc1ccccc1)Oc1ccccc1`, the inhibition is reported as inactive: 5.1%. With `O=P(Nc1nccs1)(c1ccccc1)c1nc2ccccc2s1` (stereo not given) the inhibition was inactive: 7.55%. For `CS(=O)(=O)c1cc([N+](=O)[O-])c2no[n+]([O-])c2c1`, the inhibition was inactive: -4.21%. With `Nc1ccccc1[As](=O)(O)c1ccccc1` the inhibition was inactive: -1.84%. In the case of `O=C(O)COc1ccc([As](=O)(O)O)cc1[N+](=O)[O-]`, the inhibition is reported as inactive: -1.14%. With `Nc1cccc2c([As](=O)(O)O)cccc12` the inhibition was inactive: 2.53%.

Source: PubChem BioAssay AID651999 (Sanford-Burnham Center for Chemical Genomics, 2013)
